Consider one molecule from ChEMBL document CHEMBL1146661, “The effect of 6-substituted-4',4"-difluorobenztropines on monoamine transporters and the muscarinic M1 receptor” (Bioorg Med Chem Lett, 2004).

By UniProt entry, the sequences of proteins in these tests, tags left out.
UniProt P31652, whole entry: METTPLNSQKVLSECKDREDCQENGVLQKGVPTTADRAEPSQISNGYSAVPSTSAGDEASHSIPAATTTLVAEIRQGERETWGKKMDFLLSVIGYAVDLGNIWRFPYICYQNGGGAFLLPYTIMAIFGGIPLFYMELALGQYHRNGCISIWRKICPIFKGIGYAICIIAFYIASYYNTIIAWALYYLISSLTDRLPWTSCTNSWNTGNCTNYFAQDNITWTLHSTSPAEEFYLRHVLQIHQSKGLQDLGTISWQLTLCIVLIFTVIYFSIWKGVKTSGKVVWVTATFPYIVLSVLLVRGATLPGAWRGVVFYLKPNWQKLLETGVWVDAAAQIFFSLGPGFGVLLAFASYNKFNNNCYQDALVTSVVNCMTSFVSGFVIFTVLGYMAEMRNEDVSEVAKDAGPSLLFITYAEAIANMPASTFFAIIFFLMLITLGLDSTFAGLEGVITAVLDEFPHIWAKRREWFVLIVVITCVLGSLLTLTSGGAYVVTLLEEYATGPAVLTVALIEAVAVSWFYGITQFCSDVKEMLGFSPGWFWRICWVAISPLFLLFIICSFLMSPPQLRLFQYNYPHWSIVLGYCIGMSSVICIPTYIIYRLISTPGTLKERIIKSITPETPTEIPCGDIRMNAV

A word on the Ki: it is a measure of affinity in units of concentration, obtained from inhibition or displacement. Read a high Ki as a looser hold on the target.

The experiment addresses Sodium-dependent serotonin transporter (Rattus norvegicus, UniProt P31652). Nature of the experiment: Displacement of [3H]-citalopram from serotonin transporter of rat brain membrane. The format is tissue-based. (Displacement assays read how much labelled ligand stays bound in the presence of the test substance.)

Consider `COC(=O)[C@@H]1C2CC[C@@H](C[C@@H]1OC(=O)c1ccccc1)N2C` (single isomer, unassigned) [COCAINE], for which the Ki was 293 nM.
